Values quoted from earlier work in US20150231209A1, “STIMULATION OF OVARIAN FOLLICLE DEVELOPMENT AND OOCYTE MATURATION” (THE BOARD OF TRUSTEES OF THE LELAND STANFORD JUNIOR …, priority 2012, published 2015).

Conditions: cited from earlier work

hCG: glycoprotein of 244 amino acids, used as an LH substitute
half-life, in words (compared with the native hormone (FSH; LH)): longer half-life than LH

native FSH: dimeric glycoprotein hormone synthesized and secreted by gonadotropes in the anterior pituitary gland
half-life (in vivo): 3 to 4 h
